{"source": "patent US20200079850A1", "binders": {"B1": {"name": "SRP1496-A04 (antibody, V domains shown)", "VH": "EVQLVESGGGLVQPGGSLRLSCAASGFNINDTYIHWVRQAPGKGLEWVGIIDPYDGATDYADSVKGRFTISADTSKNTAYLQMNSLRAEDTAVYYCAREIFGFYWNPFDYWGQGTLVTVSS", "VL": "DIQMTQSPSSLSASVGDRVTITCRASQDVNTAVAWYQQKPGKAPKLLIYSASFLYSGVPSRFSGSRSGTDFTLTISSLQPEDFATYYCQQHYTTPPTFGQGTKVEIK"}, "B2": {"name": "SRP1496-B08 (antibody, V domains shown)", "VH": "B1 VH", "VL": "B1 VL"}, "B3": {"name": "SRP1496-A03 (antibody, V domains shown)", "VH": "B1 VH", "VL": "B1 VL"}}, "target": "cynomolgus LAG3-Fc (accession # NC 022282.1) (cynomolgus monkey)", "assay": "ELISA, plate-coated cynomolgus LAG3-Fc"}
{"binder": "B1", "values": [{"measurement": "EC50", "value": 1.6, "unit": "nM"}]}
{"binder": "B2", "values": [{"measurement": "EC50", "value": 2.6, "unit": "nM"}]}
{"binder": "B3", "values": [{"measurement": "EC50", "value": 4.2, "unit": "nM"}]}
